The numbers were not newly measured in patent publication US20100168443A1, “Ethoid-Containing Compounds, Methods for Preparing Ethoid-Containing Compounds, and Methods of Use” (UNIVERSITY OF VIRGINIA PATENT FOUNDATION, priority 2006, published 2010), which cites them from elsewhere.

Sequences of proteins named here, by UniProt entry; tags and fusion partners are left off.
UniProt P25103, whole entry: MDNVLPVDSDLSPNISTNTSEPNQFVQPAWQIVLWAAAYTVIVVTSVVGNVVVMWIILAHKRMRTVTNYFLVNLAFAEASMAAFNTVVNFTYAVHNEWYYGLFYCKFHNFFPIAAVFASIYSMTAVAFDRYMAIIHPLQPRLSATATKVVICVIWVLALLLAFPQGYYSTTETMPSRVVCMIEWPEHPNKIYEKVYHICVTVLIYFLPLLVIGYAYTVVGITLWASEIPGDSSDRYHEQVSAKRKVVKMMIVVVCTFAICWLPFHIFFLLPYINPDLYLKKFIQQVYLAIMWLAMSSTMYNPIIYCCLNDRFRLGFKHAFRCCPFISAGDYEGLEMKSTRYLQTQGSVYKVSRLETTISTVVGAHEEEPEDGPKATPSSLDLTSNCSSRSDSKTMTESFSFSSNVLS

The target in the series is Tachykinin NK1 HUMAN receptor (Homo sapiens, UniProt P25103). To be noted: radioligand; Human recombinant (CHO cells); tested as the radiolabelled form; cited from earlier work.

Regarding `CC(C)Oc1cccc(CC(=O)N2CCC[C@](CC[N+]34CCC(c5ccccc5)(CC3)CC4)(c3ccc(Cl)c(Cl)c3)C2)c1`, the Kd was 300 pM.
